Source: ChEMBL document CHEMBL1130191 (J Med Chem, 1997)

System: DNA topoisomerase I (Bos taurus)
Test: Inhibition of calf thymus Topoisomerase-I

MIC: > 17 µM
SMILES: CO[C@H]1[C@H](O)[C@@H](O)[C@H](n2c3c(Cl)cccc3c3c4c(c5c6cccc(Cl)c6[nH]c5c32)C(=O)N(C)C4=O)O[C@@H]1CO
